From US20100234377A1 (priority 2007, published 2010)

Sequences of proteins named here, by UniProt entry; tags and fusion partners are left off.
UniProt O60760, whole entry: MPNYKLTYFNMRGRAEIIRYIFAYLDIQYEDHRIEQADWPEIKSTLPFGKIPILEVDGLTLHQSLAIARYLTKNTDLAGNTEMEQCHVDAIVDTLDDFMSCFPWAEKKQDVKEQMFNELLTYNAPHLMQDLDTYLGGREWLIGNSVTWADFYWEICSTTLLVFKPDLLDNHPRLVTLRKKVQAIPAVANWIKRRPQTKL

Target: human Prostaglandin D Synthase (GST2) (Homo sapiens, UniProt O60760)
Experiment: Homogeneous biochemical assay of human Prostaglandin D Synthase (GST2) based on its glutathion-S-transferase activity (GSH conjugation to monochlorobimane, fluorescence)
Details: read-out: GST2 inhibition IC50; Table 2; comparative examples

For `O=C(Nc1cccc(C(=O)N2CCN(C(=O)Nc3ccc(F)cc3)CC2)c1)c1ccccc1`, the IC50 was 16.2 µM.
